Target: T1, recombinant human BMP6 (Peprotech 120-06) (human, UniProt P22004 397-513)
T1 construct: Biotinylated and immobilised for SPR; also called hBMP6; Bone Morphogenetic Protein 6
T1 sequence: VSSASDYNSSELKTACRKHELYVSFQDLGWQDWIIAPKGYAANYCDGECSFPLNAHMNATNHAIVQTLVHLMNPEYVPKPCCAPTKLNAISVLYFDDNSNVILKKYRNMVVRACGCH
Test: HTRF competition, unlabelled antibody titrated; competitor: labelled CL-58838

binding result: binds
B1: CL-58835 (antibody, human IgG4 S228P, kappa, V domains shown)
VH: QVQLVESGGGLVKPGGSLRLSCAASGFTFSDYYMSWIRQAPGKGLEWVSYISISGTTIYYADSVKGRFTISRDNAMDSLYLQMNSLRAEDTAVYYCARRSSGWYDYWGQGTLVTVSS
VL: EIVLTQSPGTLSLSPGERATLSCWASQRVVYRYLAWYQRKPGQAPRLLIYGAFNRATGIPDRFSGSGSGTDFSLTISRLEPEDFAVYYCHQYGSSPPTFGQGTKVEIKR
